In patent publication US7488576B2, “Methods for diagnosis and treatment of psychiatric disorders” (The Regents of the University of California, priority 2000, dated 2009):

Tested on: GRK3
Assay: Gene expression in rat brain after stimulant treatment (Affymetrix U34A GeneChip), prefrontal cortex
Details: rat frontal cortex
Experimental: In experiments conducted during the development of the present invention, the rat animal model was used. This model is commonly accepted by those in the art for experiments involving psychiatric disorders. In some experiments, rats were treated with a single dose of methamphetamine (4 mg/kg) and sacrificed 24 hours later. This timepoint was chosen as that most likely to detect changes of relevance to mania and psychosis. It was hypothesized that at 24 hours, most short term gene induction relevant to acute intoxication and behavioral activation would have subsided. […] As mania and psychosis are typically chronic processes in man, more persistent gene changes are more likely to be central to pathophysiological mechanisms. Gene expression was examined in the prefrontal cortex and amygdala, using the Afymetrix U34A GeneChip, which interrogates approximately 7,000 known genes and 1,000 ESTs (expressed sequence tags) using an oligonucleotide nicroarray (See, Lipshutz et al., Nat. Genet. 21:20 [1999]). These brain regions were chosen based on the extensive literature that highlights their central role in cognition and emotion (See e.g., Heimer and Alheid, Adv. Exp. Med. Biol. 1:295 [1991]).
A two-fold increase or decrease in expression was chosen as a conventional empirical cut-off. […]

SMILES: CC(N)Cc1ccccc1 (stereo not shown) [amphetamine]
- GRK3 expression in response to amphetamine challenge: dramatic up-regulation
